The text below walks through data of ChEMBL document CHEMBL6096732 (J Med Chem, 2025).

Some results are limits rather than exact numbers.

A short description of assay [1]: Selectivity index, ratio of IC50 for recombinant HDAC4 (unknown origin) to IC50 for recombinant HDAC3 (unknown origin).
The nature of assay [2]: Selectivity index, ratio of IC50 for recombinant HDAC10 (unknown origin) to IC50 for recombinant HDAC3 (unknown origin).
Assay [3] can be described thus: Selectivity index, ratio of IC50 for recombinant HDAC5 (unknown origin) to IC50 for recombinant HDAC3 (unknown origin).
A short description of assay [4]: Selectivity index, ratio of IC50 for recombinant HDAC7 (unknown origin) to IC50 for recombinant HDAC3 (unknown origin).
Assay [5] in a line: Selectivity index, ratio of IC50 for recombinant HDAC2 (unknown origin) to IC50 for recombinant HDAC3 (unknown origin).
Assay [6] is described as follows: Selectivity index, ratio of IC50 for recombinant HDAC1 (unknown origin) to IC50 for recombinant HDAC3 (unknown origin).
Assay [7] can be described thus: Selectivity index, ratio of IC50 for recombinant HDAC8 (unknown origin) to IC50 for recombinant HDAC3 (unknown origin).
Assay [8] in a line: Selectivity index, ratio of IC50 for recombinant HDAC9 (unknown origin) to IC50 for recombinant HDAC3 (unknown origin).
Assay [9] is described as follows: Selectivity index, ratio of IC50 for recombinant full length human HDAC6 to IC50 for recombinant HDAC3 (unknown origin).
Assay [10] in a line: Selectivity index, ratio of IC50 for recombinant HDAC11 (unknown origin) to IC50 for recombinant HDAC3 (unknown origin).

For the compound `CCCNNC(=O)c1ccc(Cn2c3ccccc3c3c(-c4ccccn4)nc4ccccc4c32)cc1`, the Ratio IC50 in assay [1] was more than 238; in [2] it was more than 238; in assay [3], more than 238; in assay [4] it was more than 238; in assay [5] it was 232; in [6] it was 161. The Ratio IC50 in assay [7] is more than 238; in assay [8], more than 238; in assay [9] it was 195; in assay [10], 211.
